{"source": "patent US20220411487A1", "about": "(Regeneron, published 2022)", "binders": {"B1": {"name": "REGN7973 (antibody, human IgG4 S228P, kappa, V domains shown)", "VH": "EVQLVESGGGLVKPGGSLRLSCAASGFTFSNAWMSWVRQAPGKGLEWVGRIKSKTDSGTTDYAAPVKGRFTISRDDSKNTLYLQMNSLKTEDTAVYYCTTVDNDFWSGYYNWFDPWGQGTLVTVSS", "VL": "[gap - about 100 residues]", "notes": "fully human; human IgG4 Fc with hinge S108P; also called mAb37777"}}, "key": {"[1]": {"molecular_target": "T1, full length cynomolgous monkey TMPRSS6 on HEK293 cells (HEK293/mfTMPRSS6) (cynomolgous monkey/Macaca fascicularis, UniProt Q8IU80 10-811 (human entry))", "T1 chain": "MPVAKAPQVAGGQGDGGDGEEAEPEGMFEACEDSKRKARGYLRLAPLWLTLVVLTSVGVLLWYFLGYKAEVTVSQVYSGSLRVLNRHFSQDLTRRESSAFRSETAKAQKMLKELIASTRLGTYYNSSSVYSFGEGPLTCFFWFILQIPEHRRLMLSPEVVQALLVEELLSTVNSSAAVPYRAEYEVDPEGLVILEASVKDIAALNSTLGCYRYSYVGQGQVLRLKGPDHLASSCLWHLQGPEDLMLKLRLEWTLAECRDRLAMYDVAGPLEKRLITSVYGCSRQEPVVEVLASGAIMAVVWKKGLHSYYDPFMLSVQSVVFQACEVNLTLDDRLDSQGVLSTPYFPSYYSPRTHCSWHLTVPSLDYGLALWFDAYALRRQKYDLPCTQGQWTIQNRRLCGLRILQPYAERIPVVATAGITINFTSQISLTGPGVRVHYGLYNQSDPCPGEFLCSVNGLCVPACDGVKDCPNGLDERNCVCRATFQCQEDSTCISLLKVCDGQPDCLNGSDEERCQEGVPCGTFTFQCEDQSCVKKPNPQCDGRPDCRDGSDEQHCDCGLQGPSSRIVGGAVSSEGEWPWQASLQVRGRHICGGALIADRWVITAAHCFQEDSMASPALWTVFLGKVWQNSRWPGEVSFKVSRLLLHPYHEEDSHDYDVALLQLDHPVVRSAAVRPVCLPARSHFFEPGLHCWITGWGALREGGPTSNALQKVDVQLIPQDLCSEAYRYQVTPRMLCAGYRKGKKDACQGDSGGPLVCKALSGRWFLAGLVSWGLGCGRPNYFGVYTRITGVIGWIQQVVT", "assay": "cell-based or functional assay"}, "[2]": {"molecular_target": "T1, full length cynomolgous monkey TMPRSS6 …", "assay": "cell-based or functional assay"}, "[3]": {"molecular_target": "T2, hTMPRSS6_S762A-MMH (human, UniProt Q8IU80)", "T2 construct": "also called REGN5330; human TMPRSS6_S762A-MMH", "assay": "SPR, mAb captured via anti-hFc, 37 C", "procedure": "(§1) The equilibrium dissociation constant (KD) for TMPRSS6 binding to different TMPRSS6 monoclonal antibodies (mAbs) was determined using a real-time surface plasmon resonance biosensor using a Biacore 4000 instrument. All binding studies were performed in 10 mM HEPES, 150 mM NaCl, 3 mM EDTA, and 0.05% v/v Surfactant Tween-20, pH 7.4 (HBS-ET) running buffer at 25° C. and 37° C. The Biacore CM5 sensor chip surface was first derivatized by amine coupling with a human Fc specific mouse mAb to capture different TMPRSS6 mAbs. […] Different concentrations (100 nM to 3.7 nM, 3-fold serial dilution) of the TMPRSS6 reagent proteins prepared in HBS-EP running buffer were injected over the TMPRSS6 mAb captured surface for 150 seconds at a flow rate of 30 μL/min and their dissociation in HBS-ET running buffer was monitored for 10 minutes. At the end of each cycle, the TMPRSS6 mAb captured surface was regenerated using a 12 second injection of 20 mM phosphoric acid.\n(§2) The association rate (kₐ) and dissociation rate (kd) were determined by fitting the real-time binding sensorgrams to a 1:1 binding model with mass transport limitation using Scrubber 2.0 (BioLogic Software) curve-fitting software. Binding dissociation equilibrium constant (KD) and dissociative half-life (t½) were calculated from the kinetic rates as: […]"}, "[4]": {"molecular_target": "T3, mfTMPRSS6_S751A-MMH (Macaca fascicularis, UniProt Q8IU80 77-811 (human entry))", "T3 construct": "also called REGN5977; Macaca fascicularis TMPRSS6 extracellular domain with a S751A mutation and a C-terminal myc-myc-hexahistidine tag", "T3 chain": "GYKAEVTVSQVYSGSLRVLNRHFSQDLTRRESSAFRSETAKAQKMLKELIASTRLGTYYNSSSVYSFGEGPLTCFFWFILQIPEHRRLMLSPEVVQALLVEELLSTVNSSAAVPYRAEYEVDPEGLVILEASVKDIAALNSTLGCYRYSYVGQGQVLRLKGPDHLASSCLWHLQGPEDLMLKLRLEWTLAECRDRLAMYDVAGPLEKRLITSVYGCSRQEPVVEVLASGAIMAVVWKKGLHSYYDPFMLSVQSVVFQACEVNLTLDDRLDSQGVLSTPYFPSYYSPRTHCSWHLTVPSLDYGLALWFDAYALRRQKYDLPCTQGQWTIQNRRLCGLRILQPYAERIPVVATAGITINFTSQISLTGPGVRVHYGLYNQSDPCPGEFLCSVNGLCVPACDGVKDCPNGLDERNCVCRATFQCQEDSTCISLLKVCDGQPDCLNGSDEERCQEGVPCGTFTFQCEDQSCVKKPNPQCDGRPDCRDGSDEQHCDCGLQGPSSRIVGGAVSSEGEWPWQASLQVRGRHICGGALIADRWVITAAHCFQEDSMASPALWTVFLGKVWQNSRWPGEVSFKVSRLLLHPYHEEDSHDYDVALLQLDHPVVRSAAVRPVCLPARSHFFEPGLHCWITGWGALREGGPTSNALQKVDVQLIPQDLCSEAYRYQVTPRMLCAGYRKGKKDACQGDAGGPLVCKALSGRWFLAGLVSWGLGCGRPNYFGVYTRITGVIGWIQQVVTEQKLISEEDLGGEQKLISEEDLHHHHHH", "assay": "SPR, mAb captured via anti-hFc, 37 C", "procedure": "as §1, §2"}}}
{"binder": "B1", "values": [{"measurement": "% inhibition, HEK293 bioassay, 30 min pre-incubation 25 C", "setting": "[1]", "value": 85, "unit": "%"}, {"measurement": "IC50, HEK293 bioassay, 30 min pre-incubation 25 C", "setting": "[1]", "value": 25, "unit": "nM"}, {"measurement": "% inhibition, HEK293 bioassay, overnight pre-incubation 37 C", "setting": "[2]", "value": 42, "unit": "%"}, {"measurement": "IC50, HEK293 bioassay, overnight pre-incubation 37 C", "setting": "[2]", "value": "> 10", "unit": "nM"}, {"measurement": "100 nM Ag Bound", "setting": "[3]", "value": 164, "unit": "RU"}, {"measurement": "Kd", "setting": "[3]", "value": 21.2, "unit": "nM"}, {"measurement": "koff", "setting": "[3]", "value": 0.00126, "unit": "s⁻¹"}, {"measurement": "kon", "setting": "[3]", "value": 59500, "unit": "M⁻¹ s⁻¹"}, {"measurement": "t½", "setting": "[3]", "value": 9, "unit": "min"}, {"measurement": "100 nM Ag Bound", "setting": "[4]", "value": 145, "unit": "RU"}, {"measurement": "Kd", "setting": "[4]", "value": 25.7, "unit": "nM"}, {"measurement": "koff", "setting": "[4]", "value": 0.0034, "unit": "s⁻¹"}, {"measurement": "kon", "setting": "[4]", "value": 132000, "unit": "M⁻¹ s⁻¹"}, {"measurement": "t½", "setting": "[4]", "value": 3.4, "unit": "min"}]}
